Assay results as given in patent US6451314B1, “MHC conjugates useful in ameliorating autoimmunity” (Anergen, Inc., priority 1988, dated 2002).

Tested on: T cells derived form the thymus of young onset MG patient
Assay: Anergy induction in AChR-specific, DR4Dw4-restricted T cells (tritiated thymidine proliferation)
Type: cell-based, human
Conditions: IL2 at 0.5%
Protocol: The T cells in this experiment were derived form the thymus of young onset MG patient. They recognize the residues 138-167 AChR αsubunit and are restricted by DR4Dw4. In the experiments, 2×10^4 T cells were preincubated for varying times with either complex (DR4: p138-167), DR4 alone, or peptide alone. Antigen presenting cells (APC's) pulsed with different antigens were then added and proliferation of the T cells was measured using tritiated thymidine as described above. The stimulating antigens included p138-167 and a recombinantly produced AChR αsubunit polypeptide termed r37-181, which was prepared as described in Beeson et al., EMBO J 9:2101-2106 (1990) and Beeson et al., Biochem. Soc. Trans. 17:219-220 (1989), both of which are incorporated herein by reference.
To test the specificity of the interaction of the complexes with the T cells, T-cells (1×10^4) were incubated with various forms of the complex. These were—the relevant complex DR4:p138-167, DR4 alone, soluble DR4 and “sham” p138-167 in equimolar (proportionally) amounts but not bound together and DR4:MBPp1-14 complex. Sham peptide was used as previous experiments had shown that soluble p138-167 alone had similar effects to the complex. […]

## IL2: IL2 added at 0.5% at the time of preincubation
  effect of addition at the time of preincubation with DR4:p138-167: did not diminish the inhibitory effects of the complex
